## Ab-91 heavy chain CDR variants: yeast mating affinities

Values reported by Engelhart et al. 2022, doi:10.1038/s41597-022-01779-4 (FLAb copy).

Antigen: PDVDLGDISGINAS, a 14-residue peptide of the SARS-CoV-2 spike HR2 region.

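The starting antibody came from a phage panning campaign against this peptide. In library AAYL51, one, two or three CDR residues were substituted; doubles and triples were drawn at random. Affinity was read by AlphaSeq, a pooled yeast mating assay with surface-displayed partners. The frequency of each diploid, read from paired DNA barcodes, reflects how well the two displayed proteins bind. Read counts were normalised to the haploid input and turned into Kd by a linear fit to BCL2-family pairs of known affinity, for each replicate. Mating was done three times.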

Parent scFv Ab-91: VL joined to VH by a (GGGGS)3 linker. Changes lie in the heavy chain CDRs alone.
VL: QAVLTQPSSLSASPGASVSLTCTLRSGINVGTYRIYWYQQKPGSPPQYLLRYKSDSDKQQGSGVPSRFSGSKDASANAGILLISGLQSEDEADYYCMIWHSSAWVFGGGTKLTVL
VH: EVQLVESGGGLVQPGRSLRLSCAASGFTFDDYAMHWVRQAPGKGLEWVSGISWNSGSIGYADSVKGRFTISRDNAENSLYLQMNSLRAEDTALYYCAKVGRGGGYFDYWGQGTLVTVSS

The parent's heavy chain CDRs are GFTFDDYAMH, GISWNSGSIGYADSVK, VGRGGGYFDY; each variant's own CDRs replace them letter for letter.
Affinities are written as log10 Kd with Kd in nM; a lower number is a better binder.
A mean of the replicates is given; it leaves out those without a signal.
Where no diploid with the target was found in that replicate, the entry reads "ND": below detection, most likely a poor binder, though not proof of it.

| CDR-H1 | CDR-H2 | CDR-H3 | log10 Kd, replicates | log10 Kd (nM), mean | control signals |
|---|---|---|---|---|---|
| GFTFDDYAEH | GISWNSGSIGYADPVY | VGRGGGYFDY | ND ND ND | ND | 0/9 |
| GFTFDDYAMR | TISWNSGSIGYADSVK | VGRGGGYFDY | ND 4.24 ND | 4.24 | 2/9 (3.82) |
| GFTFDDYAMA | GISWNSCSIGYADSVK | VGRGGGYFDY | 3.63 ND ND | 3.63 | 3/9 (4.60) |
| GFTFDDYAMG | GISWNSGSITYADSVK | VGRGGKYFDY | 5.42 ND ND | 5.42 | 5/9 (4.66) |
| GFIFDDYQIH | GISWNSGSIGYADSVK | VGRGGGYFDY | 3.74 ND 3.13 | 3.44 | 0/9 |
| GFTFDMYAMH | GISWNSGPIGYADSVK | VGRIGGYFDY | ND ND ND | ND | 0/9 |
| GFTFDDYAMH | GISWNSGSIGYADYVK | VRRGHGYFDY | 4.08 ND 5.22 | 4.65 | 3/9 (4.56) |
| GATFDDYAMH | GISWNSGSIGIADSVK | VWRGGGYFDY | 5.07 6.21 4.75 | 5.35 | 4/9 (4.84) |
| GWTFDDYAMH | GISWNSGSIGYADSYK | VGRGGGYYDY | ND ND ND | ND | 1/9 (2.64) |
| GVTFDTYAMH | GIIWNSGSIGYADSVK | VGRGGGYFDY | ND ND ND | ND | 0/9 |
| GFTFDDYAMG | GISWNTGSIGYDDSVK | VGRGGGYFDY | ND ND ND | ND | 2/9 (4.33) |
| IFTFDDYAMH | GISLNSGSIGYADSVK | VGRGGGYADY | 4.25 ND 5.21 | 4.73 | 7/9 (4.93) |
| GFTKDDYAMH | GISWNSGSIGYADSVK | VKRGGGYFDP | ND ND ND | ND | 0/9 |
| GFTFDDCAMH | CISWNKGSIGYADSVK | VGRGGGYFDY | 5.57 ND ND | 5.57 | 2/9 (4.67) |
| GFTFDDYAMH | GISWQSGSIGYADSVK | VGRGGGILDY | 4.34 ND 5.11 | 4.72 | 2/9 (4.60) |
| GFTFDDYAMH | GGSWNSGSIGYTDSVK | TGRGGGYFDY | ND ND ND | ND | 0/9 |
| GFTFDDYAMH | YISWNSGSIGYNDSVK | EGRGGGYFDY | ND ND ND | ND | 3/9 (5.04) |
| GFDEDDYAMH | GISWNSESIGYADSVK | VGRGGGYFDY | ND 4.72 ND | 4.72 | 2/9 (4.88) |
| GFTFDDYAMF | GISWNSGSFPYADSVK | VGRGGGYFDY | ND ND ND | ND | 1/9 (4.83) |
| GFTFDDYAMH | GISWNSGMIGYADSVS | LGRGGGYFDY | 5.19 5.62 4.76 | 5.19 | 7/9 (4.23) |
| GRTFRDYAMH | GISWNSGSIGYADSVW | VGRGGGYFDY | 4.47 ND ND | 4.47 | 2/9 (5.08) |
| GFTFDDYAMH | GISLNSGSIGYADTVK | VGRGGGYFDP | 4.29 ND ND | 4.29 | 1/9 (3.35) |
| GFTFDDYAMH | GISWNRGSIGYADSVK | VGRGRGYFHY | 3.80 ND ND | 3.80 | 2/9 (4.52) |
| GFTFDDYAMH | GISWNSGSVGYADSVK | VGRGGGYFHW | 0.76 0.61 0.10 | 0.49 | 3/9 (4.12) |
| GFTFDDYAWH | GISWNSGSIGIADSYK | VGRGGGYFDY | ND ND 3.73 | 3.73 | 1/9 (3.97) |
| GFQFDDYAMD | GISWNSGRIGYADSVK | VGRGGGYFDY | ND ND ND | ND | 0/9 |
| GFGYDDYAMH | GISWNSRSIGYADSVK | VGRGGGYFDY | ND ND ND | ND | 1/9 (3.06) |
| VFTFDDYAMH | GISWNSGSIGYADSLK | VGRGGHYFDY | ND ND ND | ND | 0/9 |
| GFTFDDYAMH | GISWNSGSINYAKSVK | VGTGGGYFDY | ND 4.20 4.35 | 4.28 | 2/9 (3.28) |
| GFTFDDYAMH | GISWGSGSIGHADSVK | VGRGGGYEDY | 2.95 ND ND | 2.95 | 0/9 |
| GFTFDDYAMH | IISWNSGSIGYADSVE | KGRGGGYFDY | ND ND ND | ND | 0/9 |
| GVTFDDYAMH | GISNNSGSIGYADSVK | VGRGGGYFDY | 4.14 4.87 ND | 4.51 | 5/9 (5.23) |
| GFTFDDYYMN | GISWNSGSIGCADSVK | VGRGGGYFDY | ND ND ND | ND | 1/9 (3.98) |
| GFKFLDYAMH | GISWNSGSIGYADSVR | VGRGGGYFDY | 2.56 4.09 ND | 3.32 | 1/9 (3.27) |
| GFTFPDYMMH | GISWNSGSIGYADSVK | VGRGGFYFDY | 5.47 ND ND | 5.47 | 2/9 (3.86) |
| GGTFDDYAMA | GISWNSGSIGYADSVK | VVRGGGYFDY | ND ND ND | ND | 1/9 (2.64) |
| GFTFDKYAMH | GISWNSGPKGYADSVK | VGRGGGYFDY | 1.95 2.27 1.57 | 1.93 | 5/9 (4.46) |
| RFTFDDYAMH | MISWNSGSIGYADCVK | VGRGGGYFDY | ND ND ND | ND | 0/9 |
| GFTFDDRAMH | GISWNSGYIGYADSVK | VGRGRGYFDY | 4.44 ND 4.54 | 4.49 | 4/9 (5.11) |
| GYTFDAYAMH | GISWNSGSIGYADSVK | VGRGDGYFDY | ND ND ND | ND | 1/9 (4.31) |
| GFTFDDYAMH | GISWNSGSIGYADSIK | VGRGGEYIDY | ND ND ND | ND | 0/9 |
| GFTLDDYAMR | GISWNSGQIGYADSVK | VGRGGGYFDY | 4.85 ND ND | 4.85 | 0/9 |
| GFTFDDNAMH | GISWRSGSIGYADSVK | VGRGGDYFDY | ND ND 3.19 | 3.19 | 2/9 (4.35) |
| YFTFDDYAMH | GISWNSGSIGYADSVT | VGRGGGYFMY | ND ND ND | ND | 0/9 |

Again, the first 4 entries without any signal:

| CDR-H1 | CDR-H2 | CDR-H3 | log10 Kd, replicates | log10 Kd (nM), mean | control signals |
|---|---|---|---|---|---|
| GFTFDDYAEH | GISWNSGSIGYADPVY | VGRGGGYFDY | ND ND ND | ND | 0/9 |
| GFTFDMYAMH | GISWNSGPIGYADSVK | VGRIGGYFDY | ND ND ND | ND | 0/9 |
| GWTFDDYAMH | GISWNSGSIGYADSYK | VGRGGGYYDY | ND ND ND | ND | 1/9 (2.64) |
| GVTFDTYAMH | GIIWNSGSIGYADSVK | VGRGGGYFDY | ND ND ND | ND | 0/9 |

Three control strains display no target. For library AAYL51, 21% of the pairings with them gave a signal, with a median of 4.54 and one signal in twenty below 3.26, so weak values seen in few replicates may be background. Also given: how often the same scFv was detected with the empty control strains, with their mean in brackets.